Experimental findings from ChEMBL document CHEMBL3992491, “Discovery, structure-activity relationship studies, and anti-nociceptive effects of N-(1,2,3,4-tetrahydro-1-isoquinolinylmethyl)benzamides as novel opioid receptor agonists” (Eur J Med Chem, 2017) are described below.

Chains of the proteins cited; added tags and fusions are not shown. Lines headed by an entry give the natural chain unless they say otherwise; changes in a name come on top.
UniProt P41145: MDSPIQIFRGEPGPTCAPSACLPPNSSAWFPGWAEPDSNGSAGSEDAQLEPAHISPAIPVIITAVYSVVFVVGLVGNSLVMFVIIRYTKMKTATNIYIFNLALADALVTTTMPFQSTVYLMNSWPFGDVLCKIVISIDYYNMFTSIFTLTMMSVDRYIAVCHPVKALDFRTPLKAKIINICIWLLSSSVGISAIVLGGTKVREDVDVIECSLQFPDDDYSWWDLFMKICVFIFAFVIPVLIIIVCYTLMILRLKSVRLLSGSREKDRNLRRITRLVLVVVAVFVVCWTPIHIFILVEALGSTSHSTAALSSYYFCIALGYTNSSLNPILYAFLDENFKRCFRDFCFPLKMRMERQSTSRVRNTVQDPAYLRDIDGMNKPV

This assay deals with Kappa-type opioid receptor (Homo sapiens, UniProt P41145). The assay is described as follows: Agonist activity at human KOR expressed in HEK293 cells assessed as inhibition of forskolin-induced adenylyl cyclase-mediated cAMP accumulation after 30 mins by HTRF assay. It counts as functional, cell-based. Background: cAMP levels reflect the balance of adenylyl cyclase and phosphodiesterase activity.

In the case of `CN(C(=O)Cc1ccc(Cl)c(Cl)c1)C1CCCCC1N1CCCC1` (stereo unspecified), the Imax came out at 91.4%.
